≈ marks a conversion by molar mass, not a printed value.
Columns and labels:
Staphylococcus aureus [1] = assay: Antimicrobial activity against Staphylococcus aureus ATCC 29213 assessed as inhibition of bacterial growth incubated for 16 to 18 hrs by CLSI protocol based Muller Hinton broth assay; format: functional; details: time 16-18 hrs
Escherichia coli = assay: Antimicrobial activity against Escherichia coli ATCC 25922 assessed as inhibition of bacterial growth incubated for 16 to 18 hrs by CLSI protocol based Muller Hinton broth assay; format: functional; details: time 16-18 hrs
[2] = Hemolytic activity in defibrinated sheep RBC incubated for 1 hrs; format: toxicity, cell-based, Ovis aries, Erythrocyte; details: defibrinated sheep red blood cells
Staphylococcus aureus [3] = assay: Antibacterial activity against Staphylococcus aureus assessed as inhibition of bacterial growth incubated for 6 hrs in presence of defibrinated sheep 50% plasma by CLSI protocol based Muller Hinton broth assay; format: functional
Staphylococcus aureus [4] = assay: Antibacterial activity against Staphylococcus aureus assessed as inhibition of bacterial growth incubated for 6 hrs in presence of 50% fetal bovine plasma by CLSI protocol based Muller Hinton broth assay; format: functional
Staphylococcus aureus [5] = assay: Antibacterial activity against Staphylococcus aureus assessed as inhibition of bacterial growth incubated for 6 hrs in presence of 50% fetal bovine serum by CLSI protocol based Muller Hinton broth assay; format: functional

## CC[C@H](C)[C@H](NC(=O)CN)C(=O)NCC(=O)N[C@@H](C)C(=O)N[C@H](C(=O)N[C@@H](CC(C)C)C(=O)N[C@@H](CCCCN)C(=O)N[C@H](C(=O)N[C@@H](CC(C)C)C(=O)N[C@H](C(=O)N[C@H](C(=O)NCC(=O)N[C@@H](CC(C)C)C(=O)N1CCC[C@H]1C(=O)N[C@@H](C)C(=O)N[C@@H](CC(C)C)C(=O)N[C@H](C(=O)N[C@@H](CO)C(=O)N[C@@H](Cc1c[nH]c2ccccc12)C(=O)N[C@H](C(=O)N[C@@H](CCCCN)C(=O)N[C@@H](CCCNC(=N)N)C(=O)N[C@@H](CCCCN)C(=O)N[C@@H](CCCNC(=N)N)C(=O)N[C@@H](CCC(N)=O)C(=O)N[C@@H](CCC(N)=O)C(N)=O)[C@@H](C)CC)[C@@H](C)CC)[C@@H](C)O)[C@@H](C)O)C(C)C)C(C)C [MELITTIN]
Staphylococcus aureus [1]
  MIC: 4 µg/mL (≈ 1.41 µM)
Escherichia coli
  MIC: 4 µg/mL (≈ 1.41 µM)
[2]
  HC50 at 1 h: 12.5 µg/mL
Staphylococcus aureus [3]
  MIC: 128 µg/mL
Staphylococcus aureus [4]
  MIC: 128 µg/mL
Staphylococcus aureus [5]
  MIC: 128 µg/mL

— ChEMBL document CHEMBL5543099 (Eur J Med Chem, 2024)
